From PubChem BioAssay AID720658 (The Scripps Research Institute Molecular Screening Center, 2013)
The entries are a selection whose mix differs from that of the whole data set. Active and inactive are the calls of the source.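 How the source made its calls: active means mean inhibition across replicates above the hit cutoff set in the primary screen (cut at about 30% in these data); inactive means the rest.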

Chains of the proteins cited; added tags and fusions are not shown.
UniProt Q8VD66, whole entry: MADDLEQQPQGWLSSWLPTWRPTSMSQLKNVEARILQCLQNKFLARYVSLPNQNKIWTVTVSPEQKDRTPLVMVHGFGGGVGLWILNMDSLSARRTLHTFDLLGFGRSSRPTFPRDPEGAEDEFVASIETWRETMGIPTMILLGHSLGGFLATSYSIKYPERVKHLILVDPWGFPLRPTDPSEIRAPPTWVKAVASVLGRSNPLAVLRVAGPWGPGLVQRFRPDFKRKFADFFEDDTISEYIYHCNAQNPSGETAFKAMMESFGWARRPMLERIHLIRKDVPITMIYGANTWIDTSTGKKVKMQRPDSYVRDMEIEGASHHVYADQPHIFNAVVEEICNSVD

target: (Lyso)-N-acylphosphatidylethanolamine lipase (Mus musculus) (UniProt Q8VD66); test: ABHD4 inhibitors, retest, confirmation, biochemical, fluorescence polarization, mouse (AID 720658); details: purified mABHD4, FP-Rh probe fluorescence polarization; at 8.92 µM; stronger effect = higher value;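 further: 0% = wild-type ABHD4 with DMSO and 100% = catalytically dead S159A mutant with DMSO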
How it was run: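 material = wild-type mouse ABHD4 | signal = fluorescence polarization, excitation 525 nm, emission 598 nm | times = 45 min compound pretreatment plus 60 min FP-Rh labeling, 25 °C | also added = Rhodamine-tagged fluorophosphonate probe FP-Rh | read-out = percent inhibition scaled between wild-type DMSO and S159A mutant wells | medium = HEPES-saline buffer with 0.01% Pluronic F-127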

Q: With `CCCCCCCCCCCCCCCC1C[N+](C)(C)CCOP(C)(=O)O1` (stereo unspecified) as the molecule, how does the inhibition read?
A: Its inhibition is active: 43.7%.
